# Antibody variant affinities, Ab-14 light chain, assay B

Antigen: PDVDLGDISGINAS, a 14-residue peptide of the SARS-CoV-2 spike HR2 region.

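The parent was found by panning a naive human phage display library on the peptide. This is the validation round: designs drawn from the data on random variants, tested in the same kind of assay. Group labels follow the data file (Ctrl: baseline library sampled from a position-specific scoring matrix, with some repeated check sequences; Rand: our label for a block that the file lists under HC and that is probably the random mutants of the ten best first-round binders; En: ensemble of fine-tuned language models; GP: Gaussian process model; HC: hill climbing; Gen: genetic algorithm; a sequence that several methods proposed may carry one label only). The assay is AlphaSeq: two haploid yeast populations carry antibody and antigen on their surface. Binding brings cells together so that they mate, and sequencing counts the barcode pairs among the diploids. Each replicate has its own calibration line, from reference interactions of the BCL2 family. The assay was run in six technical replicates.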

Ab-14 is the parent antibody, in scFv form: VH, then a (GGGGS)3 linker, then VL. The heavy chain is unchanged in all variants.
VH: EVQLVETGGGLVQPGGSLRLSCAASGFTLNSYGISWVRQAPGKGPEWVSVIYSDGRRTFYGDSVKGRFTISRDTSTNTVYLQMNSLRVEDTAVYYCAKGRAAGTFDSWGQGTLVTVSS
VL: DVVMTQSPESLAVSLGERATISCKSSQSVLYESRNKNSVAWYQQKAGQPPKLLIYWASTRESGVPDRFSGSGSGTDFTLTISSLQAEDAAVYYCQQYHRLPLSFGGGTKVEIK

The whole VL of each variant is written out.
This list holds designs with at most six substitutions.
The read-out is the apparent dissociation constant on a log10 scale (nM): the lower, the stronger.
The mean shown is taken over the replicates in which the pair was detected.
A pair that was not seen in that replicate is written "n.d."; this usually means weak binding, but a binder can also be missed.
The authors' rule: three or more of the six replicates give a measured affinity, fewer mean a poor binder.
As a blank, each scFv also met three strains without target: over all light chain designs, 4% of these pairings were detected, typically at 2.64 and seldom below 1.59.
Values of this round are not directly comparable with the first-round values of the same sequences.

| VL | group | log10 Kd, replicates | mean log10 Kd (nM) |
|---|---|---|---|
| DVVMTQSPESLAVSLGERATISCKSSGSVLFQSRNKNSVAWYQQKAGQPPKLLIYDASTRESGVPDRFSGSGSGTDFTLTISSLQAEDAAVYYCQQYHRLPLSFGGGTKVEIK | GP_HC | 0.68 / 0.75 / 0.69 / 0.27 / 0.40 / 0.62 | 0.57 |
| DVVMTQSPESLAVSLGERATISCKVQQSMLYESRNKNSVAWYQQKAGQPPKLLIYNASTRMSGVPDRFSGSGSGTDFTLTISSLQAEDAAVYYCQQYHRLPLSFGGGTKVEIK | GP_Gen | -0.01 / -0.05 / -0.08 / -0.25 / -0.20 / 0.02 | -0.10 |
| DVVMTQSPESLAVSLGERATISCKQSQEDLYESRNKNSVAWYQQKAGQPPKLLIYDASTRESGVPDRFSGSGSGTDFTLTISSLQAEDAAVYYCQQYHRLPLSFGGGTKVEIK | GP_HC | -0.13 / -0.14 / -0.31 / -0.62 / -0.34 / -0.14 | -0.28 |
| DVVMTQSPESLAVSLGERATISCHSSQSVLYESRNKNSVAWYQQKAGQPPKLLIYWASTREAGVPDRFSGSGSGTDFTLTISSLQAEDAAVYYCQQYHRLPLSFGGGTKVEIK | Ctrl | 2.56 / 1.57 / 1.73 / 1.69 / 2.14 / 1.84 | 1.92 |
| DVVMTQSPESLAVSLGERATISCKCSQSWLYEDRVKNSVAWYQQKAGQPPKLLIYGASTRESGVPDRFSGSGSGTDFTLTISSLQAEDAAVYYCQQYHRLPLSFGGGTKVEIK | GP_HC | 0.53 / 0.77 / 0.15 / 0.18 / 0.76 / 0.41 | 0.46 |
| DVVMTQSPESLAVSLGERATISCKQSQSVLYESVNKNSVAWYQQKAGQPPKLLIYDASTRMSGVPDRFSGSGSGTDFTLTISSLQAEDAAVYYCQQYHRLPLSFGGGTKVEIK | GP_HC | 0.52 / 0.18 / 0.50 / 0.39 / 0.56 / 0.47 | 0.44 |
| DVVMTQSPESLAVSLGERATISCKSSQSVLYESTNKNSVAWYQQKAGQPPKLLIYWASTRESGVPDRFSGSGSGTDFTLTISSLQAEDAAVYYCQQYFRLPLSFGGGTKVEIK | Ctrl | 1.63 / 1.35 / 0.99 / 1.14 / 0.99 / 1.85 | 1.32 |
| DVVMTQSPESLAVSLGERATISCKLSMSVLMESRNKNSVAWYQQKAGQPPKLLIYENSTRESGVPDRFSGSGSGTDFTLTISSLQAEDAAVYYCQHYHRLPLSFGGGTKVEIK | En_HC | 1.62 / 1.68 / 2.08 / 1.69 / 1.78 / 2.09 | 1.82 |
| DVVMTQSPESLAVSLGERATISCKVQQSWLYESRNKNAVAWYQQKAGQPPKLLIYNASTRESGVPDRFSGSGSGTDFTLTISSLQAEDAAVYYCQQYHRLPLSFGGGTKVEIK | GP_Gen | -0.22 / -0.31 / -0.29 / -0.50 / -0.41 / -0.09 | -0.30 |
| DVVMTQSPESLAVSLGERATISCKSSKSVLFESRNKNSVAWYQQKAGQPPKLLIYNASTREQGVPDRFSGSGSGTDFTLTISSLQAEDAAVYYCQQYHRLPLSFGGGTKVEIK | GP_HC | 0.70 / 0.67 / 0.71 / 0.67 / 0.90 / 0.81 | 0.74 |
| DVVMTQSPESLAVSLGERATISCKSSQSVLYEHRNANSVAWYQQKAGQPPKLLIYWATTREFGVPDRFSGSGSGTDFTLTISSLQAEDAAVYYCQQYHRLPLSFGGGTKVEIK | Ctrl | 0.92 / 1.13 / n.d. / n.d. / n.d. / n.d. | 1.03 |
| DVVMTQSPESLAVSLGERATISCKSGQGVLYESRNKNSVAWYQQKAGQPPKLLIYGASTCYSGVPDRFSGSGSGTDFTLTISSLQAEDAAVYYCQQYHRLVLSFGGGTKVEIK | Rand | n.d. / n.d. / n.d. / n.d. / n.d. / n.d. | n.d. |
| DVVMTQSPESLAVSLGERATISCKSGQGVLYESRNKNAVAWYQQKAGQPPKLLIYGASTRESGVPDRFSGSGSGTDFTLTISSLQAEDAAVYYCQQYHRLPLSFGGGTKVEIK | GP_HC | -0.10 / -0.29 / -0.30 / -0.27 / -0.29 / -0.25 | -0.25 |
| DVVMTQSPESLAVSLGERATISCKLPQSMLYESRNKNSVAWYQQKAGQPPKLLIYNASTRMSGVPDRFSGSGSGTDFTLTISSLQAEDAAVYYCQQYHRLPLSFGGGTKVEIK | GP_Gen | -0.02 / -0.25 / -0.35 / -0.39 / -0.33 / 0.03 | -0.22 |
| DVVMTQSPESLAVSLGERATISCKLSQSVLYESRNSNSVAWYQQKAGQPPKLLIYNASYRESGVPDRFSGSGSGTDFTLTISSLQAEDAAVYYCQQYHRLPLSFGGGTKVEIK | GP_Gen | 0.02 / -0.13 / -0.21 / -0.19 / -0.29 / -0.03 | -0.14 |

From the AlphaSeq antibody data of Li et al. 2023 (doi:10.1038/s41467-023-39022-2), copy in the FLAb collection.